Assay results from US10752581B2, “4-((2-hydroxy-3-methoxybenzyl)amino)benzenesulfonamide derivatives as potent and selective inhibitors of 12-lipoxygenase” (Eastern Virginia Medical School, priority 2013, dated 2020).

Chains of the proteins cited; added tags and fusions are not shown. Lines headed by an entry give the natural chain unless they say otherwise; changes in a name come on top.
UniProt P18054: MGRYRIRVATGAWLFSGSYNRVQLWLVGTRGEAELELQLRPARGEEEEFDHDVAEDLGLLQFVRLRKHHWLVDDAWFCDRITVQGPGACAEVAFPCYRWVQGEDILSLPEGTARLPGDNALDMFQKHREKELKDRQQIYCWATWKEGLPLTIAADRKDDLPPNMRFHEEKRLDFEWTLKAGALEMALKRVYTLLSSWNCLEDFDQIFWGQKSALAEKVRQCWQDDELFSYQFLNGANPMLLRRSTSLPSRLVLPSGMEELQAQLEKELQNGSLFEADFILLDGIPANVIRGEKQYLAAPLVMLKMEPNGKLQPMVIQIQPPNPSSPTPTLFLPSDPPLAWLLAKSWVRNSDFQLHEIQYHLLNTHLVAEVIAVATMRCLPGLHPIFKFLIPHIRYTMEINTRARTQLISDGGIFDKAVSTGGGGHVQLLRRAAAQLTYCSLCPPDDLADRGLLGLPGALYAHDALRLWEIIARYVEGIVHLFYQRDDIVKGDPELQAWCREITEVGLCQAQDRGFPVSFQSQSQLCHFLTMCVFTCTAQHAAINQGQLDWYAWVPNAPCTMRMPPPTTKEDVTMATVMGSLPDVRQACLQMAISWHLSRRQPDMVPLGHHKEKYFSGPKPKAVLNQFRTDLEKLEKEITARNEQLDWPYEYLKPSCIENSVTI

Molecular target: human platelet 12-lipoxygenase (12-LOX) (Homo sapiens (Human), UniProt P18054)
Settings: read-out: 12-LOX IC50; Table 4

Compound	IC50 [nM]
COc1cccc(CNc2ccc(S(=O)(=O)Nc3nc4ccccc4o3)cc2)c1O [Compound 36, N-(benzo[d]oxazol-2-yl)-4-((2-hydroxy-3-methoxybenzyl)amino)benzenesulfonamide]	790
COc1cccc(CNc2ccc(S(=O)(=O)Nc3nccs3)cc2)c1O [Compound 1, 4-(2-hydroxy-3-methoxybenzylamino)-N-(thiazol-2-yl)benzenesulfonamide]	5100
